Protein sequences, listed by entry. Tags and fused reporters are not part of them.
UniProt P32246, whole entry: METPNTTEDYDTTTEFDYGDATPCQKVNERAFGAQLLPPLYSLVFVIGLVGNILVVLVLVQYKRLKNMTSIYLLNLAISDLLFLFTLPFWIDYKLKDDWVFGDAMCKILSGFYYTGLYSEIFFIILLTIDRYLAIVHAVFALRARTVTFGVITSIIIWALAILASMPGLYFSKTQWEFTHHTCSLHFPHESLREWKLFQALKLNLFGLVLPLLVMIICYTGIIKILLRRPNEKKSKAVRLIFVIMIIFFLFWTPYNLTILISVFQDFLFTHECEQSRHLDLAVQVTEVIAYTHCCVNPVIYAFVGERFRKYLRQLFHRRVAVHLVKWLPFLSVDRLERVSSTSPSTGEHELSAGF

In patent US20080119471A1, “Piperazine urea derivatives for the treatment of endometriosis” (priority 2004, published 2008):

Biological target: human CCR1 receptor (Homo sapiens, UniProt P32246)
Test: In vitro assay for CCR1 receptor antagonists: competition with 125I-MIP-1α or 125I-RANTES on 293MR cells
Assay type: binding

Row | Compound | Ki (Table 1, cells printed in μM) [µM] | Ki (Table 1, cells printed in nM) [µM] | further results
1 | COc1ccc(OCC(=O)N2CCN(Cc3ccccc3)CC2)cc1 | > 10 |  | 
2 | COc1cc(OCC(=O)N2CCN(Cc3ccccc3)CC2)cc(OC)c1OC |  | 0.328 | 
3 | CC1CN(Cc2ccc(F)cc2)CCN1C(=O)COc1ccc(Cl)cc1 (centres unmarked) |  | 0.01 | 
4 | CC1CN(C(=O)COc2ccc(Cl)cc2)C(C)CN1Cc1ccc(F)cc1 (centres unmarked) |  | 0.004 | 
5 | COc1cc(OCC(=O)N2CCN(Cc3ccc(F)cc3)CC2C)cc(OC)c1OC (centres unmarked) |  | 0.018 | 
6 | CC1CN(Cc2ccc(F)cc2)CCN1C(=O)C(C)(C)Oc1ccc(Cl)cc1 (centres unmarked) | > 10 |  | 
7 | COc1cccc(OCC(=O)N2CCN(Cc3ccccc3)CC2)c1 | > 10 |  | 
8 | [N-]=[N+]=NCCC1CN(Cc2ccc(F)cc2)CCN1C(=O)COc1ccc(Cl)cc1 (centres unmarked) |  |  | Ki (Table 2): 0.049 µM
